According to US11224601B1, “Compounds that inhibits MCL-1 protein” (priority 2017, dated 2022):

System: OPM-2 Luc cells
Test: Tumor Pharmacodynamics (PD) model
Format: in vivo
Settings: dosed orally to female athymic nude mice inoculated with OPM-2 Luc cells; compared with Reference Compound 1

COCC[C@@H]1[C@@H](C)C/C=C/[C@@](CN2CCN3CCOC[C@@H]3C2)(OC)[C@@H]2CC[C@H]2CN2C[C@@]3(CCCc4cc(Cl)ccc43)COc3ccc(cc32)C(=O)NS1(=O)=O
in vivo efficacy in a tumor PD model relative to Reference Compound 1: superior in vivo efficacy
